pIC50, pKi: −log10 of the molar value.

Amino acid sequences for entries named in this document (tags omitted).
UniProt P47746, whole entry: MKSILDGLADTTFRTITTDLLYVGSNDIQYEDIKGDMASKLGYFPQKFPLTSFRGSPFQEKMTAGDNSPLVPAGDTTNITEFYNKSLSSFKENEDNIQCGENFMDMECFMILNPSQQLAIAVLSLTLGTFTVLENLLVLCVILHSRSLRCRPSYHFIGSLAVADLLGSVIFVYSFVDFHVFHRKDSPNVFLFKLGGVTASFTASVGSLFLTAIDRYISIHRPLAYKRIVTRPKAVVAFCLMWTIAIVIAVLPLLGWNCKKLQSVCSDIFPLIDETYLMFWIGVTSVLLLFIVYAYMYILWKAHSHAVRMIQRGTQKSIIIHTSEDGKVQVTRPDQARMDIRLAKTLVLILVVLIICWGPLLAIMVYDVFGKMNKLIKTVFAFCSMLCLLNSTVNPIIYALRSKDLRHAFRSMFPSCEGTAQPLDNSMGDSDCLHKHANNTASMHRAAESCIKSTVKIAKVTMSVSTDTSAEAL

The assay concerns the target CB1 receptor (Mus musculus, UniProt P47746). In words: biochemical.

`CCCCCc1cc(O)c2c(c1)OC(C)(C)[C@@H]1CCC(C)=CC21` (some centres unmarked) [∆^9-THC, ∆^9-tetrahydrocannabinol]: the pIC50 was 7.99 and the pKi was 8.18.

Source of the values: article PMC6314990, “∆^9-Tetrahydrocannabinol, a major marijuana component, enhances the anesthetic effect of pentobarbital through the CB1 receptor” (Forensic Toxicology, 2018).
